Values of other authors in US20250120912A1, “SYNERGISTIC NANOMEDICINE DELIVERING TOPOISOMERASE I TOXIN (SN-38) AND INHIBITORS OF POLYNUCLEOTIDE KINASE 3'-PHOSPHATASE (PNKP) FOR ENHANCED TREATMENT OF COLORECTAL CANCER” (THE GOVERNORS OF THE UNIVERSITY OF ALBERTA, priority 2021, published 2025).

Tested on: carboxylesterase
Details: literature [6, 7]; cell dependent; cited from earlier work

CCc1c2c(nc3ccc(OC(=O)N4CCC(N5CCCCC5)CC4)cc13)-c1cc3c(c(=O)n1C2)COC(=O)[C@]3(O)CC [Irinotecan, 7-ethyl-10-[4-(1-piperidino)-1-piperidino] carbonyloxycamptothecin]
conversion from irinotecan to SN-38: < 10%
